This is a sample that favours compounds with a hit; in the whole collection about 1.7% have one here.
GLP-1R agonist – GLP-1 receptor (human) agonism; P43220; HEK293 GLP-1R CRE-luciferase, luminescence, 4-6 h; cells express a hypersensitive GLP-1R form; Potency, µM (series often up to 45.6 µM), for the others: top-dose activation, hits mostly activators; 380,000 compounds, 0.007% hits; note: potency is the fitted concentration of half-maximal effect; % of control where 0% means no effect
GLP-1R inv ag – GLP-1 receptor (human) inverse agonism | AID 624417 | HEK293 GLP-1R CRE-luciferase, luminescence, 24 h; GLP-1R form is constitutively active | 410,000 compounds, 1.6% hits | Potency, µM (series often up to 38.3 µM), inactives show top-dose activity change, negative = inhibition, usual class: inhibitors | P43220; note: potency is the fitted concentration of half-maximal effect; % is set by controls: 0 for no effect and ±100 for the full control effect; nearly all actives have a fitted effect of over 55% in size
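GLP-1R inverse agonism mode: basal reporter luminescence in engineered HEK293 cells measured after one day of compound exposure at 37 deg C, with a 12 min room-temperature detection step.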
Pin1 inhibitor – blocks the human prolyl isomerase Pin1. Pin1 FP peptide displacement, HiFluor488, 10 min. 390,000 compounds, 0.009% hits. Potency, µM (titrated, usually from 115 µM), without a hit: top-dose activity, negative = inhibition, actives largely listed as inhibitors. Q13526; active = well fitted inhibition curve with a large enough effect in the polarisation, with a control signal flat, not every such curve was filed as active; inconclusive = small, poorly fitted or top-dose-only effect, or effect the other way, or a change in a side signal; inactive = no such curve, though single readings can be large or run the other way; the % refers to the polarisation; note: potency is the fitted concentration of half-maximal effect; % is set by controls: 0 for no effect and ±100 for the full control effect
HEK293 tox – cytotoxic in the GLP-1 receptor inverse agonist counter-screen; HEK293 cAMP-luciferase reporter cells, luminescence, 24 h; Potency, µM (titrated, usually from 38.3 µM), without a hit: top-dose activity change, negative = inhibition, usual class: inhibitors; 410,000 compounds, 0.13% hits;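 note: loss of luciferase light is scored as toxicity; potency is the fitted concentration of half-maximal effect; % is set by controls: 0 for no effect and ±100 for the full control effect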
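A 23 nL compound transfer followed 12 hours of cell culture at 37 deg C; exposure then lasted 24 hr. Luciferase assay detection reagent was dispensed and plates read for luminescence after a 12 min room-temperature wait.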
PTHR1 agonist – PTHR1 (human) receptor agonism. Q03431. HEK293 GP2 PTHR1 cells, GloSensor cAMP luminescence, 1 h. Potency, µM (series often up to 115 µM), for inactives: at the highest dose activation, hits mostly activators. 410,000 compounds, 0.075% hits. AID 743266; note: potency is the fitted concentration of half-maximal effect; nearly all actives have a fitted effect of over 55% in size
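HEK-293-derived GP2 cells expressing PTHR1 and a GloSensor cAMP reporter, 3,000/well, plated overnight, given luciferin plus IBMX (each 0.5 mM as added) for 1 h at 37 °C, then compound for 1 h at 37 °C. Luminescence was read after 15 min at room temperature.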
miR-21 reporter – raises the signal of a miR-21 reporter | AID 2288 | 340,000 tested, under 10 active | Potency, µM (series often up to 38.3 µM), without a hit: at the highest dose reporter change, positive = more light | HeLa miR-21 FLuc reporter, luciferase, 48 h; active = well fitted rising curve with a large enough effect; inconclusive = small, poorly fitted or top-dose-only effect; inactive = no such curve, though single readings can be large or run the other way;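 further: % of control where 0% means no effect; miR-21 action dims this reporter so a rising signal means less miR-21 action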
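HeLa cells stably expressing CMV-driven firefly luciferase with a downstream miR-21 binding sequence, endogenously expressing miR-21, were treated with titrations (up to about 40uM final) for 48 hours at 37 degree Celsius. Luciferase luminescence was read after lysis.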
An asterisk follows results filed as active; i = inactive; ? = inconclusive; . = no result; [ ] = dose if it differs, or a comment. Unless noted, calls come from the whole dose curve; as a rule, active = well fitted curve in the direction sought with a large enough effect; inconclusive = small, poorly fitted or top-dose-only effect, or another doubt; inactive = no such curve, though single readings can be large; an effect the other way counts as inactive or inconclusive.

(1) O=C(NC1CCCCC1)C(c1cccnc1)N(C(=O)CCl)c1ccccc1Cl (stereo not given)
(2) COc1ccc(C(C(=O)NC2CCCCC2)N(C(=O)CCl)c2cccc(Cl)c2)cc1 (stereo not given)
(3) O=C(NC1CCCCC1)C(c1cccnc1)N(C(=O)CCl)c1ccc(F)cc1 (stereo not given)
(4) CO/N=C(/C(=O)N[C@@H]1C(=O)N2C(C(=O)[O-])=C(C[n+]3ccn4ncccc43)CS[C@H]12)c1nsc(N)n1
(5) O=c1c2ccccc2nc2sc(NCc3ccc([S+](=O)([O-])c4ccccc4)cc3)nn12

assay / compound	1	2	3	4	5
GLP-1R agonist	2.6%	-33.7%	-19.7%	-5.0%	.
GLP-1R inv ag	1.58µM*	2.82µM*	?	.	.
Pin1 inhibitor	-1.8%	7.5%	-4.3%	.	-2.2%
HEK293 tox	-13.3%	-15.0%	?	.	.
PTHR1 agonist	i	-41.4%	-21.7%	.	.
miR-21 reporter	?	3.7%	?	.	.

Nothing new here: four of the compounds above.
(2) COc1ccc(C(C(=O)NC2CCCCC2)N(C(=O)CCl)c2cccc(Cl)c2)cc1 (stereo not given)
(3) O=C(NC1CCCCC1)C(c1cccnc1)N(C(=O)CCl)c1ccc(F)cc1 (stereo not given)
(4) CO/N=C(/C(=O)N[C@@H]1C(=O)N2C(C(=O)[O-])=C(C[n+]3ccn4ncccc43)CS[C@H]12)c1nsc(N)n1
(5) O=c1c2ccccc2nc2sc(NCc3ccc([S+](=O)([O-])c4ccccc4)cc3)nn12

assay / compound	2	3	4	5
GLP-1R agonist	-33.7%	-19.7%	-5.0%	.
GLP-1R inv ag	2.82µM*	?	.	.
Pin1 inhibitor	7.5%	-4.3%	.	-2.2%
HEK293 tox	-15.0%	?	.	.
PTHR1 agonist	-41.4%	-21.7%	.	.
miR-21 reporter	3.7%	?	.	.

Next compounds
(6) CCC(C)NC(=O)[C@H](CSCc1ccccc1)N1Cc2ccccc2C1=O (stereo not given in full)
(7) C=C(Br)Cn1c(CCC)nc2ccccc21
(8) C=C(Br)Cn1c(CC)nc2ccccc21
(9) Cc1nc(N)nc(N)c1CCCc1ccc(Cl)c(Cl)c1
(10) COc1ccc(C2Nc3ccccc3C(=O)N2Cc2ccccn2)cc1COc1ccc(NC(C)=O)cc1 (stereo not given)

assay / compound	6	7	8	9	10
GLP-1R agonist	-6.2%	4.6%	8.6%	11.5%	.
GLP-1R inv ag	11.2µM*	3.55µM*	?	7.08µM*	.
Pin1 inhibitor	0.0%	-3.1%	-5.8%	?	0.6%
HEK293 tox	-1.8%	5.6%	22.0%	-30.4%	.
PTHR1 agonist	-3.5%	-15.8%[57.5 µM]	i	-14.2%	.
miR-21 reporter	-8.2%	0.5%	-2.1%	.	.

(11) Cc1cc2c(s1)c1cnn(Cc3ccc(Br)cc3F)c(=O)c1n2C
(12) CN(C)c1ccc(NC(=O)Cn2c(SCc3ccc(F)cc3)nc3ccncc32)cc1
(13) CN(C)c1ccc(NC(=O)Cn2c(SCc3ccc(F)cc3)nc3cccnc32)cc1
(14) Cc1cc(C(=O)Nc2cccc(C(=O)O)c2)oc1C
(15) CC(C)C[C@H](CO)N(Cc1ccccc1)S(=O)(=O)N(Cc1ccccc1)[C@@H](CO)CC(C)C

assay / compound	11	12	13	14	15
GLP-1R agonist	.	.	.	-32.0%	-1.4%
GLP-1R inv ag	.	-17.5%	-10.9%	1.26µM*	5.62µM*
Pin1 inhibitor	2.3%	?	0.3%	-2.7%	?
HEK293 tox	.	-16.0%	-1.9%	-1.0%	?
PTHR1 agonist	.	21.4%	50.1µM*	-18.3%	-92.1%
miR-21 reporter	.	-15.5%	-27.0%	-24.6%	.

(16) N#CN1CCC(NC(=O)c2ccc(C(F)(F)F)cc2)CC1
(17) CC(=O)N=c1scc(-c2ccccc2)n1-c1cccc(O)c1
(18) Cc1ccc(-c2ccc(CCC(=O)O)n2-c2cccc(O)c2)cc1
(19) CC(C)c1ccc(Nc2nc(Nc3ccc(Cl)cc3)nc(N3CCOCC3)n2)cc1
(20) O=C(NCc1ccccc1CN1CCCC1)c1ccc(S(=O)(=O)Nc2ccccc2)cc1

assay / compound	16	17	18	19	20
GLP-1R agonist	.	6.8%	-2.9%	.	-0.2%
GLP-1R inv ag	.	11.2µM*	-1.7%	.	12.6µM*
Pin1 inhibitor	-2.0%	-1.1%	1.4%	-7.7%	.
HEK293 tox	.	1.7%	9.0%	.	-28.6%
PTHR1 agonist	.	-13.0%	-0.1%[57.5 µM]	.	-19.4%
miR-21 reporter	.	?	-15.0%	.	.

(21) Cc1cc(SCC(=O)c2ccc(O)c(O)c2)n2nc(C)c(-c3ccccc3)c2n1
(22) Cc1ccc(NS(=O)(=O)c2ccc3c(c2)N(C)CCO3)cc1C
(23) O=C1CCc2cc(S(=O)(=O)Nc3cccc(F)c3)ccc2N1
(24) COc1ccccc1C(=O)COC(=O)c1ccccc1O
(25) COc1ccccc1C(=O)COC(=O)C1(C)CC1(Cl)Cl (stereo not given)

assay / compound	21	22	23	24	25
GLP-1R agonist	15.7%	.	.	11.8%	0.9%
GLP-1R inv ag	11.2µM*	.	.	-17.4%	10µM*
Pin1 inhibitor	0.0%	3.5%	4.7%	0.2%	0.2%
HEK293 tox	?	.	.	-1.7%	10.4%
PTHR1 agonist	-45.7%	.	.	-13.3%	-6.8%
miR-21 reporter	19.6%	.	.	-35.8%	.

(26) CC(C)(C)c1ccc(NC(=O)COC(=O)C2(C)CC2(Cl)Cl)cc1 (stereo not given)
(27) Cc1ccccc1NC(=O)COC(=O)C1(C)CC1(Cl)Cl (stereo not given)
(28) Oc1ccc(-c2nc3ccc4ccccc4c3c3c2CCC3)cc1O
(29) Cc1ccccc1C(=O)c1ccccc1C(=O)c1ccccc1
(30) O=C(c1ccccc1)c1ccccc1C(=O)c1ccccc1

assay / compound	26	27	28	29	30
GLP-1R agonist	1.3%	3.3%	-10.5%	-1.4%	18.4%
GLP-1R inv ag	3.55µM*	-6.3%	3.98µM*	?	8.91µM*
Pin1 inhibitor	-9.9%	3.2%	28.9%	3.9%	-14.2%
HEK293 tox	-23.9%	3.4%	?	1.4%	45.6%
PTHR1 agonist	-28.2%	-33.6%	i	-18.7%	-21.5%
miR-21 reporter	-51.0%	0.8%	-48.6%	.	-1.0%

(31) O=[N+]([O-])c1cc(S(=O)(=O)C(F)(F)F)ccc1N1CCN(c2ccccc2)CC1
(32) O=C(CNC(=O)C1CCCCC1)OCC(=O)c1ccc([N+](=O)[O-])cc1
(33) O=C(Nc1ccc(Cl)cc1)c1cc(S(=O)(=O)N2CCCc3ccccc32)ccc1F
(34) Cc1cccc(C)c1NC(=O)c1cc(S(=O)(=O)N2CCCc3ccccc32)ccc1F
(35) Cc1ccc(NC(=O)c2cc(S(=O)(=O)N3CCCc4ccccc43)ccc2F)cc1F

assay / compound	31	32	33	34	35
GLP-1R agonist	?	.	.	.	.
GLP-1R inv ag	5.01µM*	.	?	3.16µM*	12.6µM*
Pin1 inhibitor	-9.4%	-2.6%	5.5%	-3.6%	-1.9%
HEK293 tox	-24.7%	.	6.2%	19.1%	9.1%
PTHR1 agonist	-20.2%	.	-22.2%	-22.0%	-6.2%
miR-21 reporter	-0.9%	.	13.5%	7.2%	?

(36) Cc1ccc(NC(=O)c2cc(S(=O)(=O)NCCC3=CCCCC3)ccc2F)cc1F
(37) COc1ccc(S(=O)(=O)N2CCc3ccccc32)cc1C(=O)Nc1cccnc1
(38) Cc1cc(C)cc(NC(=O)c2cc(S(=O)(=O)NCCC3=CCCCC3)ccc2F)c1
(39) CCOc1c2c(c(-c3ccc4c(c3)OCO4)c3cc(OC)c(OC)cc13)C(=O)OC2
(40) O=C(Nc1ccc(Br)cc1)c1ccc(F)c(S(=O)(=O)N2CCc3ccccc32)c1

assay / compound	36	37	38	39	40
GLP-1R agonist	0.8%	10µM*	.	.	.
GLP-1R inv ag	2µM*	64.6%	?	.	4.47µM*
Pin1 inhibitor	3.1%	-10.7%	?	-3.1%	1.3%
HEK293 tox	-10.6%	-6.8%	-6.8%	.	-10.5%
PTHR1 agonist	-38.0%	i	-9.9%	.	-33.1%
miR-21 reporter	15.3%	5.3%	3.3%	.	24.4%

(41) CC(C)c1ccc(NC(=O)c2ccc(F)c(S(=O)(=O)N3CCc4ccccc43)c2)cc1
(42) Cn1c(=O)c2c(nc(NCc3ccccc3)n2Cc2ccc(Cl)c(Cl)c2)n(C)c1=O
(43) O=C(c1ccc2c(=O)n(-c3ccccc3)c(=O)[nH]c2c1)N1CCN(Cc2cccs2)CC1
(44) CCOc1ccccc1NC(=O)c1nnn(-c2ccc3c(c2)OCCO3)c1N
(45) Cc1ccccc1NC(=O)c1nnn(-c2ccc3c(c2)OCCO3)c1N

assay / compound	41	42	43	44	45
GLP-1R agonist	.	5.1%	.	7.3%	9.5%
GLP-1R inv ag	-20.4%	?	.	2.51µM*	-10.8%
Pin1 inhibitor	7.0%	3.2%	0.5%	5.3%	1.7%
HEK293 tox	0.8%	-4.7%	.	-8.2%	-8.3%
PTHR1 agonist	-8.3%	-25.1%	.	-37.6%	-32.4%
miR-21 reporter	6.3%	?	.	-17.4%	-59.9%

Assay outcomes as filed in PubChem BioAssay.
